These are literature values, as cited in patent US20230102483A1, “[6R]-MTHF IN 5-FU BASED CHEMOTHERAPY OF LEFT-SIDED COLORECTAL CANCER” (Isofol Medical AB, priority 2021, published 2023).

The conditions of this data set: occurring in 10-30% or more of all treated patients; cited from earlier work.

Entries after “also recorded” stand apart in the source; their conditions may differ.

For cetuximab: EGFR monoclonal antibody, the common side effects result was “Allergic reactions; also recorded: Heart attack; also recorded: Abnormal hair growth; also recorded: Swelling of skin around nails; also recorded: Blistering of the skin or mucous; also recorded: Skin changes such as acne-like; also recorded: Reduced levels of magnesium in; also recorded: Diarrhoea”.
